Results taken from PubChem BioAssay AID588473 (Sanford-Burnham Center for Chemical Genomics, 2011).
The list shows a part of the results, in another mix than the full data. Some structures show a salt or complex split into parts, the way the source records it. Active and inactive are the calls of the source.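 Rule for the calls: active = activation of at least 50%, plus an integration ratio under a set limit after plate pattern correction; inactive = the rest.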

These compounds were tested on CRF-binding protein / CRF receptor 2 complex (human) (assay: agonists of CRF-BP/CRF-R2 complex, primary screen, cell-based, HEK293, calcium dye fluorescence, uHTS (AID 588473;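 note: plate controls were neutral control wells without compound for no effect and CRF at EC100 for full effect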)). Settings: calcium dye fluorescence (FLIPR), at 13.2 µM, stronger effect = higher value, percent of saturating CRF peptide response.
For `CP(=O)(Nc1ccccc1F)Oc1ccccc1` (centres undefined), the activation was inactive: -0.83%.
In the case of `CC(C)c1ccc(OP(C)(=O)Nc2ccc(SC(F)(F)F)cc2)cc1` (centres undefined), the activation is reported as inactive: 5.67%.
`O=[N+]([O-])c1cc([N+](=O)[O-])c(Nc2ccc(Cl)cc2)c([N+](=O)[O-])c1` was tested, and the activation was active: 68.8%.
For `COc1ccc2c(c1O)-c1c(O)c(OC)cc3c1[C@H](C2)[N+](C)(C)CC3.O=[N+]([O-])c1cc([N+](=O)[O-])c([O-])c([N+](=O)[O-])c1[O-]`, the activation was inactive: -0.72%.
With `O=C(OC1CN2CCC1CC2)c1ccc([N+](=O)[O-])cc1` (centres undefined) the activation was inactive: -1.63%.
In the case of `O=C(OCCN1CCN(CCOCc2ccccc2)CC1)C(O)(c1ccccc1)c1ccccc1`, the activation is reported as inactive: -1.48%.
With `CCOC(=O)c1ccc(NP(C)(=O)Oc2ccc(F)cc2)cc1` (centres undefined) the activation was inactive: -0.44%.
With `COc1ccc(OP(C)(=O)Nc2ccc(SC(F)(F)F)cc2)cc1` (centres undefined) the activation was inactive: 1.37%.
For `CP(=O)(Nc1ccccc1)Oc1ccc(F)cc1` (centres undefined), the activation was inactive: 2.73%.
With `CCCCCOc1ccc(NP(C)(=O)Oc2ccc(Cl)cc2Cl)cc1` (centres undefined) the activation was inactive: -0.87%.
In the case of `O=[N+]([O-])c1cc([N+](=O)[O-])c(OC2CCCCC2O)c([N+](=O)[O-])c1` (centres undefined), the activation is reported as inactive: 0.37%.
`Cc1c([N+](=O)[O-])cc([N+](=O)[O-])c(Br)c1[N+](=O)[O-]` was tested, and the activation was inactive: -1.46%.
With `CCN(CC)CCCOC(=O)C(O)(c1ccccc1)C1CCCCC1` (centres undefined) the activation was inactive: -1.06%.
`CN(C)CCOC(=O)C(O)(c1ccccc1)C1CCCCC1` (centres undefined) was tested, and the activation was inactive: -2.15%.
With `COc1ccc(NP(C)(=O)Oc2ccccc2OC)cc1` (centres undefined) the activation was active: 60.9%.
In the case of `COc1ccc(OP(C)(=O)Nc2cccc(Br)c2)cc1` (centres undefined), the activation is reported as inactive: -0.36%.
With `Cc1c(C(c2ccc3c(c2)OCO3)c2c(C)n(C)n(-c3ccccc3)c2=O)c(=O)n(-c2ccccc2)n1C.O=[N+]([O-])c1cc([N+](=O)[O-])c(O)c([N+](=O)[O-])c1` the activation was inactive: 0.09%.
`O=[N+]([O-])c1ccc(OP2(=O)COCCO2)cc1` (centres undefined) was tested, and the activation was inactive: -0.18%.
With `Cc1cc(-c2cccc3ccccc23)c(C)cn1.O=[N+]([O-])c1cc([N+](=O)[O-])c(O)c([N+](=O)[O-])c1` the activation was inactive: -1.8%.
With `O=[N+]([O-])c1cc([N+](=O)[O-])c(NCC2CCS(=O)(=O)C2)c([N+](=O)[O-])c1` (centres undefined) the activation was inactive: 0.14%.
For `CCOP(C)(=S)SCC(=O)NC(C)(CC)C(=O)O` (centres undefined), the activation was inactive: 5.09%.
With `CP(=O)(Nc1ccc(SC(F)(F)F)cc1)Oc1ccc(F)cc1` (centres undefined) the activation was inactive: 1.54%.
With `Cc1ccccc1NP(C)(=O)Nc1ccccc1C` the activation was inactive: 0.5%.
`CP(=O)(Nc1ccc2c(c1)OCCO2)Oc1ccccc1` (centres undefined) was tested, and the activation was inactive: -1.35%.
For `O=C(OCCCN1CCCC1)C(O)(c1ccccc1)C1CCCCC1` (centres undefined), the activation was inactive: -0.93%.
`COc1ccccc1OP(C)(=O)Nc1c(C)n(C)n(-c2ccccc2)c1=O` (centres undefined) was tested, and the activation was inactive: -2.93%.
With `CCc1ccc(OP(C)(=O)Nc2cccnc2)cc1` (centres undefined) the activation was inactive: -1.16%.
`CP(=O)(Oc1ccccc1)N1CCOC1=O` (centres undefined) was tested, and the activation was inactive: -0.22%.
For `COc1ccc(OP(C)(=O)Nc2ccc(Br)cc2)cc1` (centres undefined), the activation was inactive: -1.91%.
`CCN(CC)CC(O)COC(=O)C(O)(c1ccccc1)C1CCCCC1` (centres undefined) was tested, and the activation was inactive: 1.11%.
With `CN(C)C(=O)c1c([N+](=O)[O-])cc([N+](=O)[O-])cc1[N+](=O)[O-]` the activation was inactive: 2.53%.
For `COc1ccccc1OP(C)(=O)Nc1ccccc1Br` (centres undefined), the activation was inactive: 0.55%.
In the case of `CC(C)(C)c1ccc(OP(C)(=O)O)cc1`, the activation is reported as inactive: -1.02%.
With `CP(=O)(Nc1ccc(Cl)cc1)Oc1ccc(F)cc1` (centres undefined) the activation was inactive: 2.89%.
For `CCOC(=O)c1ccc(NP(C)(=O)Oc2ccc(Cl)cc2)cc1` (centres undefined), the activation was inactive: 0.31%.
With `CP(=O)(OC12CC3CC(CC(C3)C1)C2)OC12CC3CC(CC(C3)C1)C2` the activation was inactive: 3.66%.
In the case of `Nc1ccc2c(ccc3cccnc32)n1.O=[N+]([O-])c1cc([N+](=O)[O-])c(O)c([N+](=O)[O-])c1`, the activation is reported as inactive: -0.57%.
In the case of `COc1ccccc1OP(C)(=O)Nc1ccc(C)c(C)c1` (centres undefined), the activation is reported as inactive: -0.33%.
`COc1ccc(OP(C)(=O)Nc2ccccc2Br)cc1` (centres undefined) was tested, and the activation was inactive: -2.03%.
In the case of `Cc1cc(C)cc(OP(C)(=O)Nc2cccc(C(F)(F)F)c2)c1` (centres undefined), the activation is reported as inactive: -2.59%.
`O=C1C(O)=C([N+](=O)[O-])C(=O)C(O)=C1[N+](=O)[O-]` was tested, and the activation was inactive: -1.45%.
In the case of `CCCCCCCCCCCCCCCC1C[N+](C)(C)CCOP(C)(=O)O1` (centres undefined), the activation is reported as inactive: 47.3%.
`CP(=O)(Nc1ccc(Cl)cc1Cl)Oc1ccccc1` (centres undefined) was tested, and the activation was inactive: -0.11%.
With `CP(=O)(OCCOc1ccccc1)OCCOc1ccccc1` the activation was inactive: 1.87%.
For `COc1ccc(OP(C)(=O)Nc2ccccn2)cc1` (centres undefined), the activation was inactive: 3.15%.
With `CN(C)CCOC(=O)C(O)(c1ccccc1)C1CCCC1` (centres undefined) the activation was inactive: -3%.
With `COc1ccccc1OP(C)(=O)Nc1ccc(Br)cc1` (centres undefined) the activation was inactive: -1.81%.
For `COc1ccccc1OP(C)(=O)Nc1ccc(C)cc1C` (centres undefined), the activation was inactive: -0.37%.
For `CP(=O)(Nc1ccccn1)Oc1ccccc1` (centres undefined), the activation was inactive: -2.71%.
For `CCc1ccc(OP(C)(=O)O)cc1`, the activation was inactive: 0.21%.
In the case of `Cc1c(NP(C)(=O)Oc2ccc(C(C)C)cc2)c(=O)n(-c2ccccc2)n1C` (centres undefined), the activation is reported as inactive: 1.28%.
In the case of `O=[N+]([O-])c1cc([N+](=O)[O-])c(Nc2ccccn2)c([N+](=O)[O-])c1`, the activation is reported as inactive: 6.09%.
With `CCN(CC)CCCOC(=O)C(O)(c1ccccc1)c1ccccc1` the activation was inactive: 1.24%.
With `O=[N+]([O-])c1ccc2c(c1)C=Nc1ccccc1O2` the activation was inactive: -2.25%.
With `Cc1cccc(C)c1OP(C)(N)=O` (centres undefined) the activation was inactive: 0.01%.
In the case of `CC(C)(C)c1ccc(OP(C)(=O)Nc2ccc(SC(F)(F)F)cc2)cc1` (centres undefined), the activation is reported as inactive: 4.88%.
For `O=[N+]([O-])c1cc([N+](=O)[O-])c(Nc2cccnc2)c([N+](=O)[O-])c1`, the activation was active: 66.2%.
`Cc1cc(C)cc(OP(C)(N)=O)c1` (centres undefined) was tested, and the activation was inactive: 4.55%.
With `COc1ccc(OP(C)(=O)Nc2cccc(F)c2)cc1` (centres undefined) the activation was inactive: -6.29%.
